Consider three compounds from US10889563B2, “Deoxyuridine triphosphatase inhibitors” (University of Southern California, priority 2013, dated 2021).

In one assay the test system is H1299 cells. Description: MTS growth inhibition assay, H1299. The note with it: H1299, 72 hours, up to 12.5 μmol/L. A general note: Tetrazolium dyes change colour on reduction, which living cells bring about.
Another assay relates to HCT116 cells. The assay can be described thus: Colony formation assay, HCT116. The assay is classed as cell-based. On the procedure:
Colony forming assay showing the ability of colon (SW620, HCT 116), non-small cell lung (A549, H460, H1299 and H358) and breast (MCF7) cancer cells to survive and proliferate following transient 24 hour exposure to single agent PCI 1013, FUdR and combinations. Specifically, cells were seeded at densities between 50 and 100 cells/well in 24-well plates. Twenty-four hours later, cells were treated with increasing concentrations of PCI 10213, a fixed dose of FUdR and combinations of these. After 24 hours, drug was removed, cells were rinsed and allowed to outgrow for 10-14 days. At the conclusion of the outgrowth, cells were fixed in 60% ice cold methanol and stained with 0.1% crystal violet, scanned and counted. Data is presented as percentage of untreated controls (mean±SD). Fraction affected and combination indexes were calculated according to the method of Chou and Talalay where <1 is indicative of a synergistic drug interaction. […]
In colorectal cancer cells, concentrations of PCI 10213 ranging from 3.1 μmol/L to 50 μmol/L were combined with 0.5 μmol/L FUdR in HCT116 cells and 1 μmol/L FUdR in SW620 cells.

For the compound `C[C@@H](NS(=O)(=O)CC/C=C/Cn1ccc(=O)[nH]c1=O)c1cccc(OCC2CC2)c1` [PCI 10216, reference compound], the single agent activity entry with H1299 cells is “modest single agent activity”. On to `C[C@@H](NS(=O)(=O)CC/C=C/CC1CCC(=O)NC1=O)c1cccc(OCC2CC2)c1` (mixture of isomers) [PCI 10213], for which, in the assay with HCT116 cells (HCT116, 0.78 to 12.5 μmol/L compound plus fixed 0.5 μmol/L FUdR (Example 23)), the “colonies formed, combination with FUdR” value was “significant reductions in colonies formed when combined with FUdR at concentrations of 6.25 μmol/L and greater”. Further, the “number of colonies formed, compound alone” value with HCT116 cells (HCT116, 0.78 to 12.5 μmol/L single agent (Example 23)) is “no significant effects on the number of colonies formed”. In addition, in the assay on H1299 cells, the single agent activity result was “modest single agent activity”. On to `C[C@@H](NS(=O)(=O)CC/C=C/CC1SC(=O)NC1=O)c1cccc(OCC2CC2)c1` (some centres unmarked) [PCI 10214], for which the single agent activity result in the assay with H1299 cells is recorded as “modest single agent activity”.
